Measurements reported in paper PMC10578927, “An unconventional gatekeeper mutation sensitizes inositol hexakisphosphate kinases to an allosteric inhibitor” (eLife, 2023).

Amino acid sequences for entries named in this document (tags omitted). A change or cut given only in a name is not applied to a line headed by its entry.
UniProt Q92551, whole entry L210V: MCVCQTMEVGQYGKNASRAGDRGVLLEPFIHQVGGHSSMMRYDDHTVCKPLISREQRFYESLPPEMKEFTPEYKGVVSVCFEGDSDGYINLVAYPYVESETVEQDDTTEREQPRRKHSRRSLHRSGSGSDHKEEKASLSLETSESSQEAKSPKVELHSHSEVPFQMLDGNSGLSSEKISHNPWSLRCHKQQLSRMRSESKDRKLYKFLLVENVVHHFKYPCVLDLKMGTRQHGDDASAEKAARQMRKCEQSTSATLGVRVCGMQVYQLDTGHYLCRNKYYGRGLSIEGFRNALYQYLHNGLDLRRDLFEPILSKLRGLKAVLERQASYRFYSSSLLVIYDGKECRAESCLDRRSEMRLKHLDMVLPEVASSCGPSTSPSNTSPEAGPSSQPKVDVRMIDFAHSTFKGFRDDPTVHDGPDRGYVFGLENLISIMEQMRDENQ
UniProt Q92551, whole entry: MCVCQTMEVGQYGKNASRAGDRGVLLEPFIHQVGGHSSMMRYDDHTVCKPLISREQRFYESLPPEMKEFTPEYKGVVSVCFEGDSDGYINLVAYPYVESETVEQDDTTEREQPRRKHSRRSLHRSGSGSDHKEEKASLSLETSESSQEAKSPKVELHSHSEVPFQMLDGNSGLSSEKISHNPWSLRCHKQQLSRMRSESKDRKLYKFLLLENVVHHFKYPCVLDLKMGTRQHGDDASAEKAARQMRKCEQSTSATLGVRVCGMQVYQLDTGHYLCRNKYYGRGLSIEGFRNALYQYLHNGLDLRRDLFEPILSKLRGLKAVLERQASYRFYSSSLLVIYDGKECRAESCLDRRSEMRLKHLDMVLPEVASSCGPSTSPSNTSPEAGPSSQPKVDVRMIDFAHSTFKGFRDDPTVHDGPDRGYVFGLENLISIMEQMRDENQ

Columns and labels:
IP6K1^L210V = IP6K1^L210V (Homo sapiens, UniProt Q92551, L210V); assay: High-throughput screen, reverse kinase reaction (5PP-InsP5 + ADP), Kinase-Glo luminescence; format: biochemical; settings: for Z-score: primary screen, IP6K1^L210V; for IC50: read-out: IC50 (IP6K1^L210V), Kinase-Glo, reverse reaction, dose-dependent reconfirmation
IP6K1^wt = IP6K1^wt (Homo sapiens, UniProt Q92551); assay: as above; format: biochemical; settings: read-out: IC50 (IP6K1^wt), dose-dependent reconfirmation
HEK293 = assay: Cytotoxicity, cell survival after 72 hr incubation; format: cell-based; settings: HEK293, 10 µM
HepG2 = assay: Cytotoxicity, cell survival after 72 hr incubation; format: cell-based; settings: HepG2, 10 µM

Structure (SMILES) | Z-score (IP6K1^L210V) | IC50 (IP6K1^wt) | IC50 (IP6K1^L210V) | Cell number (%) (HEK293) | Cell number (%) (HepG2)
O=c1c(O)c(-c2ccc(O)c(O)c2)oc2cc(O)cc(O)c12 [compound 405356, quercetin, reference compound] | -17.5 | – | – | – | –
O=c1c(O)c(-c2ccc(O)c(O)c2)oc2cc(O)ccc12 | -18.2 | 85.3 µM | 5.13 µM | 72.7 ± 9.8% | 67.4 ± 6.4%
Cc1c(O)cc2oc(-c3ccc(O)c(O)c3)c(O)c(=O)c2c1O | -24.6 | 47.5 µM | 1.76 µM | – | –
